# Assay results published in US20050009772A1, “Methods and compositions for the treatment of glaucoma and other retinal diseases” (The Regents of the University of California, priority 2003, published 2005).
# Test: Body weight monitoring in Experiment 2
# Assay type: in vivo, rat
# Description: Experiment 2 was performed to investigate whether the induction of HSP72 by GGA enhances RGC survival and protects optic nerve axons in a rat glaucoma model. After pretreatment with GGA (200 mg/kg daily) for 7 days, trabecular laser photocoagulation was performed on one eye of each rat (intracameral injection of India ink was performed 5 days before photocoagulation), while the contralateral eye remained untreated. GGA was then given twice a week at the same dose until euthanasia. Sustained elevation of intraocular pressure (IOP) was maintained by performing trabecular laser photocoagulation three weeks after the first photocoagulation. To elucidate the role of HSP expression in the neuroprotective effects of GGA, systemic administration of quercetin at 4 mg/kg was given in the same manner as GGA. Administrations of saline-vehicle, GGA, or GGA with 4 mg/kg of quercetin without trabecular laser photocoagulation were included as controls. IOP and body weight were measured once a week. After 5 weeks of IOP elevation, the number of retrogradely labeled RGCs with dextran tetramethylrhodamine (DTMR) was counted (n=53). The grading of optic nerve injury and the counting of cresyl violet-stained cells in the retinal ganglion cell layer (RGCL) was also performed (n=54).
substance,measurement,setting,value
Geranylgeranylacetone [GGA],Weight,0 week,379 ± 8 g
same,Weight,1 week,400 ± 9 g
same,Weight,2 week,424 ± 9 g
same,Weight,3 week,448 ± 11 g
same,Weight,4 week,454 ± 12 g
same,Weight,5 week,471 ± 12 g
same,percentage increase of body weight,from first day of injection (1 week before first laser) to euthanasia (5 weeks after first laser),27%
same,"gain in body weight, difference among groups","vehicle, GGA, GGA with quercetin groups",no statistically significant difference
same,Weight,−1 week,371 ± 6 g
